The source of these data is PMC4666393.

Like-named read-outs stand apart in the source and are kept apart here.

Assay in all cases: EMSA competition
(In general: A gel shift assay detects complexes by their altered migration in electrophoresis.)

Data set [1] deals with T1, Ku heterodimer (Ku70/Ku80) (Homo sapiens, UniProt P12956;P13010 1-609;1-732).
The target of data set [2] is T1, Ku heterodimer (Ku70/Ku80). The source holds these as a separate data set.
For data set [3], the target named is T1, Ku heterodimer (Ku70/Ku80). This is another data set of the same source.

B1: LNA ssO (XNA)
DNA: CAGCTCCTCGCCCTTGCTCA
modifications: LNA bases (underlined positions lost in text); all phosphorothioate
Turning to B1, in data set [1], the binding result is on record as “binds”.

B2: 32 nt ssO, non-biotinylated (ssDNA)
DNA: CGAACACCGGTACCCAGCTTTTGTTCCCTTTA
With B2, the binding result in data set [2] is “binds”.

B3: 32 nt ssO 5'- and 3'-biotin (ssDNA)
DNA: CGAACACCGGTACCCAGCTTTTGTTCCCTTTA
modifications: 5' and 3' biotin
For B3, the binding result in data set [3] is reported as “binds”.

B4: 32 nt ssO 5'-biotin (ssDNA)
DNA: CGAACACCGGTACCCAGCTTTTGTTCCCTTTA
modifications: 5' biotin
As to B4, the binding result in data set [3] is “binds”.

B5: 32 nt ssO 3'-biotin (ssDNA)
DNA: CGAACACCGGTACCCAGCTTTTGTTCCCTTTA
modifications: 3' biotin
For the molecule B5, the binding result in data set [3] is given as “binds”.
